## Yeast mating assay B: variants of the scFv Ab-14

Binding partner: SARS-CoV-2 spike HR2 peptide, sequence PDVDLGDISGINAS.

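Phage display of a naive human antibody library on the peptide gave the parent. These sequences belong to a second round, designed from the earlier measurements on random variants of the parent. Group labels follow the data file (Ctrl: baseline library sampled from a position-specific scoring matrix, with some repeated check sequences; En: ensemble of fine-tuned language models; GP: Gaussian process model; GPLM: also part of the Gaussian process libraries; HC: hill climbing; Gen: genetic algorithm; Gibbs: Gibbs sampling; a sequence that several methods proposed may carry one label only). In AlphaSeq, yeast of one mating type display the scFv and yeast of the other type display the target. The frequency of each diploid, read from paired DNA barcodes, reflects how well the two displayed proteins bind. The ratio of observed to expected reads was calibrated, replicate by replicate, on BCL2-family standards whose Kd was known from biolayer interferometry. Each pool was mated in six replicate cultures.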

Parent scFv Ab-14: VH joined to VL by the linker GGGGSGGGGSGGGGS. Changes lie in the light chain CDRs alone.
VH: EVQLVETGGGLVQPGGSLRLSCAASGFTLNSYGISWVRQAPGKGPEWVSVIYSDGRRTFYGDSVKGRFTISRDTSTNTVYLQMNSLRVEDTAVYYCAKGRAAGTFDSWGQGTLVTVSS
VL: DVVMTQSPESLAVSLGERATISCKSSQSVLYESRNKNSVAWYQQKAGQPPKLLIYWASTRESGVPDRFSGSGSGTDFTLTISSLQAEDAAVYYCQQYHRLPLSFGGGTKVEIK

Variants are written as CDR1, CDR2 and CDR3 of the light chain (limits as in the source). Parent: KSSQSVLYESRNKNSVA, WASTRES, QQYHRLPLS.
Values are log10 of the apparent Kd in nM; lower means stronger binding.
The mean shown is taken over the replicates in which the pair was detected.
Where no diploid with the target was found in any replicate, the entry reads "nd": below detection, most likely a poor binder, though not proof of it.
In the paper, a design with two or fewer of six values counts as a poor binder.
Background: pairings of all light chain designs with three empty control strains gave a value in 4% of cases (median 2.64, 5th percentile 1.59). Values in that range, when seen in few replicates, are hard to tell from nonspecific mating. The control count says in how many pairings with the empty strains this scFv gave a signal.
The range of this assay differs from that of the first round, and the authors advise against merging the two.

QFFSRFGQLTEIRNAVA / DATEVAD / QQYMHLPLT [En_Gibbs]: 0.09 (6 of 6 replicates; controls 0 of 18).
TISQLMNMGQFAIQSVA / QASIRNS / QQYDRLPLM [En_Gen]: 1.29 (6 of 6 replicates; controls 1 of 18).
KSSQSVLYESRNKNWVA / WCSTRVQ / FQYHRLPLS [Ctrl]: nd (0 of 6 replicates; controls 0 of 18).
KSQQSVLYENRNKNSVA / WRSTREV / QQYHRLPLS [Ctrl]: 2.06 (1 of 6 replicates; controls 0 of 18).
KLQQSRLMEERNSNSVA / SASLRES / QQYHRLPLS [GP_Gibbs]: 0.21 (6 of 6 replicates; controls 2 of 18).
KNSQSVLYESRNKNSVA / WASTRES / QQYHYLPNS [Ctrl]: nd (0 of 6 replicates; controls 0 of 18).
KSSQSVLYESRAGNSVA / WASTRES / QQYHRLPLS [Ctrl]: nd (0 of 6 replicates; controls 0 of 18).
KLSQSVLYESRNKNSVA / NAHTRES / QQYHRLPLS [GP_Gen]: -0.35 (6 of 6 replicates; controls 0 of 18).
IISQVDAYESRQKNSIA / DQSTRGS / QQYDRLPLS [En_HC]: 0.68 (6 of 6 replicates; controls 1 of 18).
KMSQSVLYESRNKYSVA / WASEREE / QQYHRLPLS [Ctrl]: 1.89 (4 of 6 replicates; controls 0 of 18).
KSSQSVLYESSNKNSVA / KASTREP / QQYHRLPLS [Ctrl]: 0.76 (6 of 6 replicates; controls 2 of 18).
KSSQSVLMESENKNSVA / WASTREE / QQYHRLPLS [Ctrl]: 1.13 (6 of 6 replicates; controls 0 of 18).
RVTNEFGKEMERKQSVA / ETDQRCM / QQYFRLPLI [En_Gibbs]: 0.14 (6 of 6 replicates; controls 1 of 18).
KSSQSVLEESRNKNSVA / WASTRES / QWYHRLPLS [Ctrl]: nd (0 of 6 replicates; controls 0 of 18).
NLTTGYRQGALNTDNVA / HGNMREA / QQYYRLPLS [En_Gibbs]: -0.14 (6 of 6 replicates; controls 1 of 18).
KSSQSVLYESRNKNSVA / WKSTRES / QQYHRLPLQ [Ctrl]: 2.16 (1 of 6 replicates; controls 0 of 18).
KLSQSVLYEDRVKNSVA / NASQRES / QQYHRLPLS [GP_Gen]: -0.03 (6 of 6 replicates; controls 3 of 18).
KLMNQMGGIQQMKNSIA / NLEIGAR / QQYAHLPLV [En_Gibbs]: nd (0 of 6 replicates; controls 1 of 18).
KITFQMMSSNAHDYSIA / QTNVYSD / QQYNRLPLD [En_Gibbs]: 1.54 (5 of 6 replicates; controls 0 of 18).
KSSFSQLYENRNKNSVA / SASQRES / QQYHRLPLS [GP_Gibbs]: 0.15 (6 of 6 replicates; controls 0 of 18).
KLWMSVNGESRNKNAVA / SASQREQ / QQYHRLPLS [GP_Gibbs]: -0.29 (6 of 6 replicates; controls 1 of 18).
KIGGVTNGISRQKNSVA / EQSTRED / QQYNRLPLS [En_HC]: -0.06 (6 of 6 replicates; controls 0 of 18).

The remaining entries, values ahead:

Result 0.34 (6 of 6 replicates; controls 2 of 18), variant KIFQSWGMEQRNVNSVA / HASQRLD / QQYHRLPLS [GP_Gibbs].
Result 0.90 (6 of 6 replicates; controls 0 of 18), variant HSSPSVEYESRNKNSVA / NASNRES / QQYHRLPLS [GP_HC].
Result 0.10 (6 of 6 replicates; controls 2 of 18), variant KSSYSYLYESRNKNSVA / EASTRES / QQYHRLPLS [GPLM_HC].
Result -0.29 (6 of 6 replicates; controls 0 of 18), variant KISQSVDFESRNKNSVA / DASTRES / QQYHRLPLS [GP_HC].
Result 1.46 (6 of 6 replicates; controls 0 of 18), variant HMSMLTLQGMRQRNSVA / QMTTREN / QQYDHLPLA [En_Gen].
Result 0.11 (6 of 6 replicates; controls 0 of 18), variant HSSPSVEYESRNKNSVA / NASQRES / QQYHRLPLS [GP_HC].
Result 0.18 (6 of 6 replicates; controls 0 of 18), variant KSSISGLYESRNKNSVA / EASTREQ / QQYHRLPLS [GP_HC].
Result 0.13 (6 of 6 replicates; controls 0 of 18), variant KLSQSWLYLSRNVNAVA / EASQRLS / QDYHRLPLS [GP_Gibbs].
Result 0.97 (6 of 6 replicates; controls 0 of 18), variant KISQSVLEESRYKNSVA / WASTRES / QQYHRLPFF [Ctrl].
Result 0.20 (6 of 6 replicates; controls 1 of 18), variant KMSQSVLYESNNKNSVA / AASTRES / QQYHQLPLS [Ctrl].
Result -0.32 (6 of 6 replicates; controls 1 of 18), variant KLPQSVLYESRNKNSVA / QASTRED / QQYHRLPLS [GP_Gen].
Result -0.21 (6 of 6 replicates; controls 1 of 18), variant KLQQSFLYESRNKNSVA / NASQRES / QQYHRLPLS [GP_Gen].
Result 0.26 (6 of 6 replicates; controls 2 of 18), variant KYDFSVLEESRNSNAVA / NASTREE / QDYHRLPLS [GP_Gibbs].
Result nd (0 of 6 replicates; controls 0 of 18), variant KSSQSVLYESRNKNSIA / WASVRES / QQPHRLPLS [Ctrl].
Result 0.44 (6 of 6 replicates; controls 1 of 18), variant KLQQSVLMGSRNKNSVA / EASTRLV / QAYHRLPLS [GP_Gibbs].
Result 0.75 (3 of 6 replicates; controls 1 of 18), variant KISQMVRVGSTHNNSIA / EEAKRAD / QQYHRLPLA [En_Gen].
Result 1.22 (6 of 6 replicates; controls 0 of 18), variant NLMHHQGRYDVWKESIA / EASIRAS / QQYFRLPLA [En_Gibbs].
Result 0.08 (6 of 6 replicates; controls 0 of 18), variant HISDLIMVASRNKNSVA / DENARPD / QQYHRLPLS [En_HC].
Result 2.45 (3 of 6 replicates; controls 1 of 18), variant KIYQFGLNHSHQTNSIA / DQECREA / QQYDRLPLS [En_Gen].
Result -0.26 (6 of 6 replicates; controls 0 of 18), variant KVDSAFLYEQRNKNSVA / QASQRES / QQYHRLPLS [GP_Gibbs].
Result 1.00 (6 of 6 replicates; controls 0 of 18), variant KSSGSVLYEDKNVNSVA / HASQRCS / QQYHRLPLS [GP_Gibbs].
Result -0.44 (6 of 6 replicates; controls 0 of 18), variant KLSQSALYESRNKNNVA / GASTRES / QQYHRLPLS [GP_Gen].
Result 0.10 (6 of 6 replicates; controls 0 of 18), variant KVSQSELYEQRNKNSVA / EASTRES / QQYHRLPLS [GP_Gen].

Repeated from above, the 4 best binders with a signal in all replicates:

For KLSQSALYESRNKNNVA / GASTRES / QQYHRLPLS [GP_Gen], the assay gave -0.44 (6 of 6 replicates; controls 0 of 18).
For KLSQSVLYESRNKNSVA / NAHTRES / QQYHRLPLS [GP_Gen], the assay gave -0.35 (6 of 6 replicates; controls 0 of 18).
For KLPQSVLYESRNKNSVA / QASTRED / QQYHRLPLS [GP_Gen], the assay gave -0.32 (6 of 6 replicates; controls 1 of 18).
For KLWMSVNGESRNKNAVA / SASQREQ / QQYHRLPLS [GP_Gibbs], the assay gave -0.29 (6 of 6 replicates; controls 1 of 18).

Reference: Li et al. 2023, doi:10.1038/s41467-023-39022-2. File: FLAb, binding data.